Results as given in patent publication US20160244745A1 (published 2016).

Key:
Experiment in all cases: binding titration
GP2_cMet-P7-1# = target: GP2_cMet-P7-1#
GP2_cMet-P5-1# = target: GP2_cMet-P5-1#
GP2_cMet-5# = target: GP2_cMet-5#
GP2_cMet-1.2.5# = target: GP2_cMet-1.2.5#
GP2_cMet-1.2.6# = target: GP2_cMet-1.2.6#
GP2_cMet-1.2.10# = target: GP2_cMet-1.2.10#

Kd (GP2_cMet-P7-1#): 27 nM
Kd (GP2_cMet-P5-1#): 143 nM
Kd (GP2_cMet-5#): 59 nM
Kd (GP2_cMet-1.2.5#): 293 nM
Kd (GP2_cMet-1.2.6#): 1820 nM
Kd (GP2_cMet-1.2.10#): 272 nM
B1: cMet (receptor)
chain: ECKEALAKSEMNVNMKYQLPNFTAETPIQNVILHEHHIFLGATNYIYVLNEEDLQKVAEYKTGPVLEHPDCFPCQDCSSKANLSGGVWKDNINMALVVDTYYDDQLISCGSVNRGTCQRHVFPHNHTADIQSEVHCIFSPQIEEPSQCPDCVVSALGAKVLSSVKDRFINFFVGNTINSSYFPDHPLHSISVRRLKETKDGFMFLTDQSYIDVLPEFRDSYPIKYVHAFESNNFIYFLTVQRETLDAQTFHTRIIRFCSINSGLHSYMEMPLECILTEKRKKRSTKKEVFNILQAAYVSKPGAQLARQIGASLNDDILFGVFAQSKPDSAEPMDRSAMCAFPIKYVNDFFNKIVNKNNVRCLQHFYGPNHEHCFNRTLLRNSSGCEARRDEYRTEFTTALQRVDLFMGQFSEVLLTSISTFIKGDLTIANLGTSEGRFMQVVVSRSGPSTPHVNFLLDSHPVSPEVIVEHTLNQNGYTLVITGKKITKIPLNGLGCRHFQSCSQCLSAPPFVQCGWCHDKCVRSEECLSGTWTQQICLPAIYKVFPNSAPLEGGTRLTICGWDFGFRRNNKFDLKKTRVLLGNESCTLTLSESTMNTLKCTVGPAMNKHFNMSIIISNGHGTTQYSTFSYVDPVITSISPKYGPMAGGTLLTLTGNYLNSGNSRHISIGGKTCTLKSVSNSILECYTPAQTISTEFAVKLKIDLANRETSIFSYREDPIVYEIHPTKSFISGGSTITGVGKNLNSVSVPRMVINVHEAGRNFTVACQHRSNSEIICCTTPSLQQLNLQLPLKTKAFFMLDGILSKYFDLIYVHNPVFKPFEKPVMISMGNENVLEIKGNDIDPEAVKGEVLKVGNKSCENIHLHSEAVLCTVPNDLLKLNSELNIEWKQAISSTVLGKVIVQPDQNFTGLIAGVVSISTALLLLLGFFLWLKKRKQIKDLGSELVRYDARVHTPHLDRLVSARSVSPTTEMVSNESVDYRATFPEDQFPNSSQNGSCRQVQYPLTDMSPILTSGDSDISSPLLQNTVHIDLSALNPELVQAVQHVVIGPSSLIVHFNEVIGRGHFGCVYHGTLLDNDGKKIHCAVKSLNRITDIGEVSQFLTEGIIMKDFSHPNVLSLLGICLRSEGSPLVVLPYMKHGDLRNFIRNETHNPTVKDLIGFGLQVAKGMKYLASKKFVHRDLAARNCMLDEKFTVKVADFGLARDMYDKEYYSVHNKTGAKLPVKWMALESLQTQKFTTKSDVWSFGVLLWELMTRGAPPYPDVNTFDITVYLLQGRRLLQPEYCPDPLYEVMLKCWHPKAEMRPSFSELVSRISAIFSTFIGEHYVHVNATYVNVKCVAPYPSLLSSEDNADDEVDTRPASFWETS
